Data: ChEMBL document CHEMBL5370605, “Discovery of Novel Fedratinib-Based HDAC/JAK/BRD4 Triple Inhibitors with Remarkable Antitumor Activity against Triple Negative Breast Cancer” (J Med Chem, 2023)
Calls of active or inactive are those of the source.

By UniProt entry, the sequences of proteins in these tests, tags left out. Where a name states a change or a piece, a line headed by the entry shows the natural chain unless it says otherwise.
UniProt P10721, whole entry: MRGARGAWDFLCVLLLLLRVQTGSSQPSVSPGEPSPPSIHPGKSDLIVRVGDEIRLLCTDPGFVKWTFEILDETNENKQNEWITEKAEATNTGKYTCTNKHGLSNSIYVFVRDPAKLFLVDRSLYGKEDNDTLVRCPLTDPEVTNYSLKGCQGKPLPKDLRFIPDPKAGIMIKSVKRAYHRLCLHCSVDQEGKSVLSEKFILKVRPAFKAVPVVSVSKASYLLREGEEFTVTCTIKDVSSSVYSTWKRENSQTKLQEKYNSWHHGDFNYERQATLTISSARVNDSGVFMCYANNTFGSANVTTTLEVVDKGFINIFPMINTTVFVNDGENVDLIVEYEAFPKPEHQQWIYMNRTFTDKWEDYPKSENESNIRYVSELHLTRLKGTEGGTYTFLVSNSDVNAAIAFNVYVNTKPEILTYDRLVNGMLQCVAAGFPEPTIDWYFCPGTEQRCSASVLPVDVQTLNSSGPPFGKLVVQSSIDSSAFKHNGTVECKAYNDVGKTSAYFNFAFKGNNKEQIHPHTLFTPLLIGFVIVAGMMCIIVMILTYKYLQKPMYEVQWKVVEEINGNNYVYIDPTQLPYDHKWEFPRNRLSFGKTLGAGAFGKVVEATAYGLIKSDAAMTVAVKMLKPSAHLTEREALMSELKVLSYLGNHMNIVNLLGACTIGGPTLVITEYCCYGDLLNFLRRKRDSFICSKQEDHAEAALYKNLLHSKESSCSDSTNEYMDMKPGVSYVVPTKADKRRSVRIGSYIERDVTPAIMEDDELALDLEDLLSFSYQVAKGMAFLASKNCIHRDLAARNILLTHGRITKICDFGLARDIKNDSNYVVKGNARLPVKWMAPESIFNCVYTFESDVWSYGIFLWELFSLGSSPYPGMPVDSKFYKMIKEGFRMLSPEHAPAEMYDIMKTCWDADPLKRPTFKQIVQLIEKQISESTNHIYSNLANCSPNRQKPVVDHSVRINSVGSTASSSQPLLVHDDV
UniProt P06213, whole entry: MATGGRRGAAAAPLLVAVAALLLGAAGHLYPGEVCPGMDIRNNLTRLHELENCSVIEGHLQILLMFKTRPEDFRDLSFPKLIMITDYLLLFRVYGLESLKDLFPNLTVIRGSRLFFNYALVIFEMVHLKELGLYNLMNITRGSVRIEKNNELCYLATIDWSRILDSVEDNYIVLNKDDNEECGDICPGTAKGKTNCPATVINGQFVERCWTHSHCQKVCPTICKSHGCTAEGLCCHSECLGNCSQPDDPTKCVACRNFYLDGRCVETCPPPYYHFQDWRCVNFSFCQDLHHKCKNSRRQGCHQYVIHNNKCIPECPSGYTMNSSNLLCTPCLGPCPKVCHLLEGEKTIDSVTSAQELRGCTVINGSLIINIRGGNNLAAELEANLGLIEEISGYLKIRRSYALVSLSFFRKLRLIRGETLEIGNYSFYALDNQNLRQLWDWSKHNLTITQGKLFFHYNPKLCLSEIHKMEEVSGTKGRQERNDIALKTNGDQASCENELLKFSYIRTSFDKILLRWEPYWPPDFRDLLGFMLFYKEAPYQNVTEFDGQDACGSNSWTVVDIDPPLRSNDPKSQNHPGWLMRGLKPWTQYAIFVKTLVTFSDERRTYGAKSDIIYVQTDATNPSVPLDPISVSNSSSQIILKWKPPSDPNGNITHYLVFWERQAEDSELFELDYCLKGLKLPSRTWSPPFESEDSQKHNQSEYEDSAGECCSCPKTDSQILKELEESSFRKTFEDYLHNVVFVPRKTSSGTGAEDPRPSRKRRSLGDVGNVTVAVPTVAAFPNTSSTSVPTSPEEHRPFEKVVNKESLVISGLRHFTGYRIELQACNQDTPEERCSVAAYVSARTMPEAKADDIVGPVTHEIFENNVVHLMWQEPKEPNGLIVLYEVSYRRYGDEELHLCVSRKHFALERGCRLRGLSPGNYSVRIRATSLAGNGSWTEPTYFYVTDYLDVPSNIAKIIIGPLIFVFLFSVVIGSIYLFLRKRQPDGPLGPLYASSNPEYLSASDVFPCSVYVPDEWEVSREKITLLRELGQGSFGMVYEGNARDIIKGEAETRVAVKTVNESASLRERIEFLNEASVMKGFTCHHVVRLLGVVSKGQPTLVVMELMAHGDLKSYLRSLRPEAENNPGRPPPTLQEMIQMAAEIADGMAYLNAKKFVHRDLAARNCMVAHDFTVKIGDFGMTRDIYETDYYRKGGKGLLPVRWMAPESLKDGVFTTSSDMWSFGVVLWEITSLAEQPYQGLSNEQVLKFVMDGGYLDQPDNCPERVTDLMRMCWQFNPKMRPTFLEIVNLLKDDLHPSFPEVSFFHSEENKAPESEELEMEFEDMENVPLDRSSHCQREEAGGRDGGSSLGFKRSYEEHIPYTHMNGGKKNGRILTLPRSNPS
UniProt P35968, whole entry: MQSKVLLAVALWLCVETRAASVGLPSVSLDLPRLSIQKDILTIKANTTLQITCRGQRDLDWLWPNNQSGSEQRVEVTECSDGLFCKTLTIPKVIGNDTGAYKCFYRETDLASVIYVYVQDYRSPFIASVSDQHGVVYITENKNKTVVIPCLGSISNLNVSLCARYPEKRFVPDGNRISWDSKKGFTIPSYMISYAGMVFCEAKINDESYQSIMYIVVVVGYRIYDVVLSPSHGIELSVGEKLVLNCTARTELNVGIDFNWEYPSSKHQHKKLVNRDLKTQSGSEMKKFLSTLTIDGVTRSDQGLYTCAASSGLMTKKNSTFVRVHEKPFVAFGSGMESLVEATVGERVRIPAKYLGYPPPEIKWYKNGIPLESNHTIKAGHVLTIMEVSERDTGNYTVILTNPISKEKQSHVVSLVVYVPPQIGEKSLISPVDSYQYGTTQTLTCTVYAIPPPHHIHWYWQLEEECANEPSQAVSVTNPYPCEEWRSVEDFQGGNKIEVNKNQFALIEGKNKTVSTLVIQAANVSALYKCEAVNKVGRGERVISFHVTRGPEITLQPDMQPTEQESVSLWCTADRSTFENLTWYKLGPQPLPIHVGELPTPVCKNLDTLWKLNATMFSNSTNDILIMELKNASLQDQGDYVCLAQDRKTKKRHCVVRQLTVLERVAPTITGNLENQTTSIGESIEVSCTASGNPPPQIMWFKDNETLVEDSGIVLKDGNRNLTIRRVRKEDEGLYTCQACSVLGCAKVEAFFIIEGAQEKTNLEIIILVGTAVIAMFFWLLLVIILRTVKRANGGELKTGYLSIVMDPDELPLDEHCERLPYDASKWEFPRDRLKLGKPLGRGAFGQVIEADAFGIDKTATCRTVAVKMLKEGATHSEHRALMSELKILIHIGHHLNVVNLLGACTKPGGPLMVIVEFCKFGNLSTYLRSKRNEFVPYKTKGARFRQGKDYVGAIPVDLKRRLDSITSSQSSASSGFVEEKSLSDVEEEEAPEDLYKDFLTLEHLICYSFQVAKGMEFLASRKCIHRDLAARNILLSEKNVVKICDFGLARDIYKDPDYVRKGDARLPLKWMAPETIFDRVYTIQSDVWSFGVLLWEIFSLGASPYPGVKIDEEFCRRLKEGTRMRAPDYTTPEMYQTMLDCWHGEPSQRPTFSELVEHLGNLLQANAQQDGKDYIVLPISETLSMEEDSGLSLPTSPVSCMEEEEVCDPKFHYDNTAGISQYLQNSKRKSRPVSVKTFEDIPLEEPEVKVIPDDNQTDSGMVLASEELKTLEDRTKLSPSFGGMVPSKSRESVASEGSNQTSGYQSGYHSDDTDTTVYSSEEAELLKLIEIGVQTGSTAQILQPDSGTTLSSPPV
UniProt P17948, whole entry: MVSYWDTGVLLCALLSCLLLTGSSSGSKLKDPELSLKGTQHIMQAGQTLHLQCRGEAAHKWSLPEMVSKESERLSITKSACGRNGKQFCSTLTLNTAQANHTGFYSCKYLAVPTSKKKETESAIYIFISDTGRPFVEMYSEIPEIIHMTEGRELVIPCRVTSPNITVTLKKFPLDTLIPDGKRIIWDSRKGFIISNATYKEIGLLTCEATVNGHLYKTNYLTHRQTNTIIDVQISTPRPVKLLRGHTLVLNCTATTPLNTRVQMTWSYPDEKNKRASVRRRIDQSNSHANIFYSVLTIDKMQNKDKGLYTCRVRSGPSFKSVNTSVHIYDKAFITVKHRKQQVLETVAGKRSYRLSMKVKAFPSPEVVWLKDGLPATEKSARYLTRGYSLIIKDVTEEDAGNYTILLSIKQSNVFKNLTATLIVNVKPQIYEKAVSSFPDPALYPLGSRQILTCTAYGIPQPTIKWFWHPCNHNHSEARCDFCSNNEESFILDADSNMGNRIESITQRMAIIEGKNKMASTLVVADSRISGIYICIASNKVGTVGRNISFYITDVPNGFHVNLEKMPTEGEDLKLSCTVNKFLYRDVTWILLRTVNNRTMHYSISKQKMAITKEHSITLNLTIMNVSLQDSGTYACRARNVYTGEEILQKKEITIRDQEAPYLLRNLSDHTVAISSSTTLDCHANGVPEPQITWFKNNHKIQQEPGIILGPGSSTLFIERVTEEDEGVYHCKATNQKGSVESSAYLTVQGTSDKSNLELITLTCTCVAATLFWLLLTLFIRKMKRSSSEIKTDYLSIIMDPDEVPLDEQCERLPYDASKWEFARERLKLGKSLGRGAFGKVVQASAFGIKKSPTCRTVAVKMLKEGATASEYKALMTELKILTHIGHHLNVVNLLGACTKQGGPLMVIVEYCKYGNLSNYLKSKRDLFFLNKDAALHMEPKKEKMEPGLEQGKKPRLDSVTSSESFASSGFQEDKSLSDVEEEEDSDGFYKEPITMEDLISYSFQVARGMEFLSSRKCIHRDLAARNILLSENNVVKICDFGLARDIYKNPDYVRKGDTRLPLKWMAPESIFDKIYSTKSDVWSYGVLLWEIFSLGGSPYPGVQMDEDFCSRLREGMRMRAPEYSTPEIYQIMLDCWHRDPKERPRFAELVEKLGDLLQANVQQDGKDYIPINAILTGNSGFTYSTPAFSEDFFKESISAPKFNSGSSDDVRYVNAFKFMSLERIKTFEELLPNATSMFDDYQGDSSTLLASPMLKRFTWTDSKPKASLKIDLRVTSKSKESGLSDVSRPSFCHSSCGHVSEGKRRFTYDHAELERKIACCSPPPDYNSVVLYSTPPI
UniProt P16234: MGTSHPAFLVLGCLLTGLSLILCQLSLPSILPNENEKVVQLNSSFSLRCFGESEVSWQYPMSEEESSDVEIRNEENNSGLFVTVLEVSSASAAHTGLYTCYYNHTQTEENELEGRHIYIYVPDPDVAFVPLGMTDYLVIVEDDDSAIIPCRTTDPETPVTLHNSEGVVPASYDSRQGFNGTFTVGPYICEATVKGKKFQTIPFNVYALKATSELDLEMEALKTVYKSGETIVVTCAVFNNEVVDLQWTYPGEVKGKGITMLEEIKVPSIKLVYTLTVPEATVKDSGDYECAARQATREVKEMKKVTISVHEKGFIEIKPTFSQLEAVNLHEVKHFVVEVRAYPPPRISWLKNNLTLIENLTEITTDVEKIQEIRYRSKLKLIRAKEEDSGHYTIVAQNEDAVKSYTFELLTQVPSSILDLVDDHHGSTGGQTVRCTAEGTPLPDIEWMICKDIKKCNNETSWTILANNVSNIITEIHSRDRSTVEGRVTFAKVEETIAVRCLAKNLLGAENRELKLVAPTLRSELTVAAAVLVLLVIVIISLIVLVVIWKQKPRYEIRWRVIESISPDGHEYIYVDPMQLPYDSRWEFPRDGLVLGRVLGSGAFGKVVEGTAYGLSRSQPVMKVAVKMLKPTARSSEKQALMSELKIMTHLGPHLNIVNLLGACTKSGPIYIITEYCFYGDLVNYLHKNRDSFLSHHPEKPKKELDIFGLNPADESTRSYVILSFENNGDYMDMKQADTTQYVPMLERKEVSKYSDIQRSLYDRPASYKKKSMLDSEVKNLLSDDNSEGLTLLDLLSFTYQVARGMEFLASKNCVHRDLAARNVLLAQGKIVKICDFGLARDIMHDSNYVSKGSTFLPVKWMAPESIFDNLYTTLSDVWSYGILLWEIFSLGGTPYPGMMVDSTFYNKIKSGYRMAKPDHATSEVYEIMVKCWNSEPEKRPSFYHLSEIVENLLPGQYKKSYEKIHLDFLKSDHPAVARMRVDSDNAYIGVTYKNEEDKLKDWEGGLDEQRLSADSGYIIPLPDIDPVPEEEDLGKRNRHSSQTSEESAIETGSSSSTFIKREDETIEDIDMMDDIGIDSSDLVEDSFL

What was measured:
Settings in all cases: dose 500.0 nM
[1] = target: ALK tyrosine kinase receptor (Homo sapiens) (UniProt Q9UM73)
[2] = target: Platelet-derived growth factor receptor beta (Homo sapiens) (UniProt P09619)
[3] = target: Mast/stem cell growth factor receptor Kit (Homo sapiens) (UniProt P10721)
[4] = target: Insulin receptor (Homo sapiens) (UniProt P06213)
[5] = target: Vascular endothelial growth factor receptor 2 (Homo sapiens) (UniProt P35968)
[6] = target: Proto-oncogene tyrosine-protein kinase Src (Homo sapiens) (UniProt P12931)
[7] = target: Vascular endothelial growth factor receptor 1 (Homo sapiens) (UniProt P17948)
[8] = target: Fibroblast growth factor receptor 1 (Homo sapiens) (UniProt P11362)
[9] = target: Platelet-derived growth factor receptor alpha (Homo sapiens) (UniProt P16234)

Measured: inhibition

Cc1cnc(Nc2ccc(OCCN3CCCC3)cc2)nc1Nc1ccc(C(=O)NO)cc1
active: [1] | [2] | [3] | [4] | [5] | [6] | [7] | [8] | [9]
